By UniProt entry, the sequences of proteins in these tests, tags left out. Residues count along the entry.
UniProt P31652, whole entry: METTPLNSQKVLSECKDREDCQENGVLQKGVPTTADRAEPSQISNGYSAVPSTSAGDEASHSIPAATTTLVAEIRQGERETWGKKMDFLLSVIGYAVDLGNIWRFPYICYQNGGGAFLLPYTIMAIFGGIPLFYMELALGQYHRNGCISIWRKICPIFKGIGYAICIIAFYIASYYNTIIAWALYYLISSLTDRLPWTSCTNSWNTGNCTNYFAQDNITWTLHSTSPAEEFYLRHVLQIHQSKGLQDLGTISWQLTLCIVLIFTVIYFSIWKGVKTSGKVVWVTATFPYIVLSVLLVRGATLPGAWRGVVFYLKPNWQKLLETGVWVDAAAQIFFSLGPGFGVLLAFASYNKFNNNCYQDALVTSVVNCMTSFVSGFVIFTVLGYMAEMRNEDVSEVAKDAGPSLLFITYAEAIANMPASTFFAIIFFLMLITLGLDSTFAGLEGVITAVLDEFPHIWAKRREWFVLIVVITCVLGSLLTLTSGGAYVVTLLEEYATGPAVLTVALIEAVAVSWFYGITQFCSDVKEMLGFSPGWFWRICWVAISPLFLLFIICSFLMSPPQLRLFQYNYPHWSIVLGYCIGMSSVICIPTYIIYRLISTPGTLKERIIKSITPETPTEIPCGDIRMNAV
UniProt Q63380, 1-617: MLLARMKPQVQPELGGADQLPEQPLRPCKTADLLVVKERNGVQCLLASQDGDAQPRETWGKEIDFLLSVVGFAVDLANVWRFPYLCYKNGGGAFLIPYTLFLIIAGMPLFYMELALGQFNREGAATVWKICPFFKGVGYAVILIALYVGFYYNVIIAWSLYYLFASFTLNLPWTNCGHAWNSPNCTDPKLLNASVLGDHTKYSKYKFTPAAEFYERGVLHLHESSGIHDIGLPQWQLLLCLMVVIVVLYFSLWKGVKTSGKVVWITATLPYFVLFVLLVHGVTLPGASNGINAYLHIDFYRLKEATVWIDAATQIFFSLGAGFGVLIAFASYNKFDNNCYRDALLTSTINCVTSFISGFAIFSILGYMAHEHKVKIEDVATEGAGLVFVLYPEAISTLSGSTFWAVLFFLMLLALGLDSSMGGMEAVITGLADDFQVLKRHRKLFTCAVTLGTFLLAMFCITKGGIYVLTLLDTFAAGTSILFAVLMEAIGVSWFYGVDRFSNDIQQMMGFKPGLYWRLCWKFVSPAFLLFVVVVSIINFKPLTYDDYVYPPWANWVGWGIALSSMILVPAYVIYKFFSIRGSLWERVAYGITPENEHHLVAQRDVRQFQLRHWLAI

In patent US6107345A, “Benzocyclobutane compounds” (Adir et Compagnie, priority 1998, dated 2000):

Legend:
serotonin reuptake sites = target: T1, serotonin reuptake sites (Rattus norvegicus, UniProt P31652); assay: Determination of the affinity for serotonin reuptake sites ([3H]-paroxetine competition); type: binding; conditions: radioligand; read-out: dissociation constant Kd for the serotonin reuptake site
T1 construct: The membranes are prepared from frontal cortex of rate; from tissue; host or cells: frontal cortex membranes (rat, printed 'rate')
Description: Determination of the affinity for serotonin reuptake sites
The incubation buffer contains […] TRIS-HCl (pH 7.4), 120 mM NaCl and 5 mM KCl. The non-specific binding is determined using 10 μM citalopram. At the end of the incubation, the incubation medium is filtered and washed three times with 5 ml of cooled buffer. The radioactivity retained on the filters is determined by liquid scintillation counting. The binding isotherms are analysed by non-linear regression to determine the IC50 values. Those values are converted into a dissociation constant (Ki) using the Cheng-Prusoff equation: […]
(§1) The results are expressed in pKi (-log Ki).

[1] = target: T2, noradrenaline reuptake sites (Rattus norvegicus, UniProt Q63380); assay: Determination of the affinity for noradrenaline reuptake sites ([3H]-nisoxetine competition); type: binding
T2 construct: The membranes are prepared from frontal cortex of rat; from tissue; host or cells: rat frontal cortex membranes
Description: The binding isotherms are analysed by non-linear regression to determine the IC50 values. Those values are converted into a dissociation constant (Ki) using the Cheng-Prusoff equation: […]
as §1

For `Fc1ccc([C@@H]2CCNC[C@H]2COc2ccc3c(c2)OCO3)cc1` [[^3 H]-paroxetine, reference compound], the Kd (serotonin reuptake sites) was 0.13 nM.

`CNCCC(Oc1ccccc1OC)c1ccccc1` (centres unmarked) [[^3 H]-nisoxetine, reference compound] was tested, and the Kd [1] was 1.23 nM.
